# Assay results from PubChem BioAssay AID652106 (National Center for Advancing Translational Sciences (NCATS), 2013).
# The list shows a part of the results, in another mix than the full data. Some structures show a salt or complex split into parts, the way the source records it. Calls of active or inactive are those of the source. Calls follow the shape of the dose curve; as a rule, active = well fitted activation curve with a large enough effect; inconclusive = small, poorly fitted or top-dose-only effect; inactive = no such curve, though single readings can be large or run the other way.
# Test: qHTS of alpha-syn Inhibitors; also: % of control where 0% means no effect; nearly all actives have a fitted effect of over 65% in size
# Conditions: Yeast expressing alpha-synuclein, BacTiter-Glo, 24 h; at 46.1 µM (top of the series) unless noted
# Text: The goal of this project is to identify new chemical probes capable of reversing the toxicity associated with the Parkinson disease-related protein, alpha-synuclein. Compounds will be selected on their ability to restore growth in yeast cells expressing toxic levels of alpha-synuclein. These compounds will provide a complementary approach to deciphering the tangled mechanisms of toxicity and protection that we have uncovered through genome-wide genetic screens and are beginning to uncover in a large-scale proteomics analysis with mass spectroscopy. To this end, a miniaturized assay was developed to be screened against the Molecular Libraries Small Molecule Repository (MLSMR) to discover alpha-synuclein inhibitors. Please note that in the set-up this yeast-based assay compounds that inhibit as alpha-syn, have a read-out as activators. NIH Chemical Genomics Center [NCGC] NIH Molecular Libraries Probe Centers Network [MLPCN] MLPCN Grant: NS060957 Assay Submitter (PI): Susan Lindquist, Whitehead Institute/MIT
# Dispense 2.5 microL yeast galactose medium per 1536-well plate, pin compound, dispense 2.5 microL alpha-synuclein expressing yeast in galactose medium at OD600=0.02 (pregrown in raffinose medium to mid-log phase) per well, incubate for 24 hr at 30 deg C, and cell growth will be measured using 5 microL of Bactiter/Glo reagent to entire plate and read using Luminescence Protocol in ViewLux.
row,Compound,growth rescue (activation)
1,CCCOc1ccc(C(=O)NCC2(N(C)C)CCCCC2)cc1,inactive: 4.07%
2,O=c1[nH]c2ccccc2n1C1CCN(C(c2cc3ccccc3o2)c2nnnn2C2CCCC2)CC1 (configuration not stated),inactive: 5.53%
3,ClCCN(CCCl)c1ccccc1,inactive: 1.09%
4,ClCCN(CCCl)c1ccc(C=C2C=CC=C2)cc1,inactive: 9.8%
5,O=C(O)C1(Nc2ccccc2)CCN(Cc2ccccc2)CC1,inactive: 3.68%
6,CC(C)(C)OC(=O)N1CCC(Nc2ccccc2)CC1,inactive: 11.8%
7,CN1CCC(Nc2ccc(F)c(Cl)c2)CC1,inactive: 1.21%
8,CCOc1ncccc1C(=O)NCC1(N2CCOCC2)CCCCC1,inactive: -6.07%
9,CN1CCC(Nc2ccc(Cl)cc2)CC1,inactive: 2.12%
10,CCC(CO)(C(=O)OC1CN2CCC1CC2)c1ccccc1 (configuration not stated),inactive: 2.65%
11,COc1cccc(C(=O)N(c2cc(C)cc(C)c2)C2CCN(C(=O)OC(C)(C)C)CC2)c1,inactive: 0.671%
12,COc1cc(C(=O)NCC2(N3CCOCC3)CCCCC2)cc(OC)c1OC,inactive: 0.0685%
13,COc1cc(OC)cc(C(=O)NCC2(N3CCOCC3)CCCCC2)c1,inactive: -0.899%
14,COc1cccc(C(c2nnnn2C2CCCC2)N2CCC(n3c(=O)[nH]c4ccccc43)CC2)c1OC (configuration not stated),inactive: 1.3%
15,Cc1ccc(NC2(C#N)CCN(Cc3ccccc3)CC2)cc1,inactive: 6.31%
16,Cc1ccc(Nc2c([N+](=O)[O-])cc([N+](=O)[O-])cc2[N+](=O)[O-])cc1,inactive: 1.4%
17,Fc1ccccc1NC1CCN(Cc2ccccc2)CC1,inactive: -0.582%
18,Cc1ccc(C(=O)NCC2(N3CCCCC3)CCCCC2)o1,inactive: 1.33%
19,O=c1[nH]c2ccccc2n1C1CCN(C(c2ccnc3ccccc23)c2nnnn2C2CCCCC2)CC1 (configuration not stated),inactive: 3.05%
20,COc1cc(OC)cc(C(=O)NCC2(N3CCCCC3)CCCCC2)c1,inactive: 1.87%
21,CCC(c1nnnn1C1CCCCC1)N1CCC(n2c(=O)[nH]c3ccccc32)CC1 (configuration not stated),inactive: 2.46%
22,CC(=O)N(c1ccccc1)C1CCNCC1,inactive: 2.85%
23,COc1cccc(C(c2nnnn2C2CCCCC2)N2CCC(n3c(=O)[nH]c4ccccc43)CC2)c1OC (configuration not stated),inactive: -0.27%

row,Compound,growth rescue (activation)
1,Cn1c(=O)[nH]cc(N(CCCl)CCCl)c1=O,inactive: -5.72%
2,CN(C)c1ccc(C(=O)NCC2(N3CCCCC3)CCCCC2)cc1,inactive: 2.29%
3,O=C(NCC1(N2CCCCC2)CCCCC1)c1ccco1,inactive: 1.31% [at 1.84 µM]
4,CC(C)(C)n1nnnc1C(c1ccnc2ccccc12)N1CCC(n2c(=O)[nH]c3ccccc32)CC1 (configuration not stated),inactive: 4.3%
5,COc1ccc(C(c2nnnn2C2CCCCC2)N2CCC(n3c(=O)[nH]c4ccccc43)CC2)cc1 (configuration not stated),inactive: 0.129%
6,CCN1CCC(Nc2cccc(F)c2)CC1,inactive: 3.2%
7,Cc1ccccc1NC1(C#N)CCN(Cc2ccccc2)CC1,inactive: -9.28%
8,CCOC(=O)C(CC)C1=NC(C)(C)Cc2ccccc21.O=[N+]([O-])c1cc([N+](=O)[O-])c(O)c([N+](=O)[O-])c1 (configuration not stated),inactive: 1.17%
9,CC(C)(C)OC(=O)N1CCC(N(C(=O)c2ccccc2)c2ccc(Cl)cc2)CC1,inactive: 15.2%
10,O=C(NCC1(N2CCOCC2)CCCCC1)c1ccc([N+](=O)[O-])cc1,inactive: 29.6%
11,O=C(NCC1(N2CCOCC2)CCCCC1)c1ccccc1[N+](=O)[O-],inactive: 1.82%
12,N#Cc1ccc(C(=O)NCC2(N3CCCCC3)CCCCC2)cc1,inactive: 8.55%
13,O=c1[nH]c2ccccc2n1C1CCN(C(c2ccccc2)c2nnnn2C2CCCC2)CC1 (configuration not stated),inactive: 1.85%
14,CCCN1CCC(Nc2cc(OC)cc(OC)c2)CC1,inactive: -0.562%
15,Cc1cc(N(CCCl)CCCl)ccc1C=O,inactive: 7.43%
16,O=C(NCC1(N2CCOCC2)CCCCC1)c1ccccc1,inactive: -1.7%
17,c1ccc(CN2CCC(Nc3ccccc3)CC2)cc1,inactive: 5.54%
18,CN(C)C1(CNC(=O)c2cccc(C#N)c2)CCCCC1,inactive: 5.94%
19,O=c1[nH]c2ccccc2n1C1CCN(C(c2ccnc3ccccc23)c2nnnn2C2CCCC2)CC1 (configuration not stated),inactive: -0.561%
20,COc1ccc(C(=O)NCC2(N3CCOCC3)CCCCC2)cc1OC,inactive: -7.95%
21,O=Cc1ccc(N(CCCl)CCCl)cc1,inactive: -22.2%
22,O=c1[nH]c2ccccc2n1C1CCN(C(c2cccs2)c2nnnn2C2CCCCC2)CC1 (configuration not stated),inactive: 5.78%
23,O=C(NCC1(N2CCOCC2)CCCCC1)c1cc(Br)ccc1Cl,inactive: 14.2%

row,Compound,growth rescue (activation)
1,COc1cc(C(=O)NCC2(N3CCOCC3)CCCCC2)cc(OC)c1C,inactive: -0.495%
2,CCCCn1nnnc1C(c1ccccc1)N1CCC(n2c(=O)[nH]c3ccccc32)CC1 (configuration not stated),inactive: 7.12%
3,CCCCn1nnnc1C(c1cccc(OC)c1OC)N1CCC(n2c(=O)[nH]c3ccccc32)CC1 (configuration not stated),inactive: -4.43%
4,O=c1[nH]c2ccccc2n1C1CCN(C(c2cccs2)c2nnnn2C2CCCC2)CC1 (configuration not stated),inactive: 0.462%
5,O=C(O)c1cccc(Nc2c([N+](=O)[O-])cc([N+](=O)[O-])cc2[N+](=O)[O-])c1,inactive: 15.6%
6,O=C(OC1CN2CCC1CC2)C1c2ccccc2C=Cc2ccccc21 (configuration not stated),inactive: -4.43%
7,CCc1cc(C(=O)NCC2(N3CCCCC3)CCCCC2)sc1C,inactive: 0.52%
8,N/C(=N\O)c1c(N)no[n+]1[O-],inactive: -7.11%
9,COc1cccc(C(c2nnnn2C(C)(C)C)N2CCC(n3c(=O)[nH]c4ccccc43)CC2)c1OC (configuration not stated),inactive: 1.47%
10,CCOC(=O)N1CCC(Nc2ccc(C)cc2)CC1,inactive: -7.07%
11,CCCCn1nnnc1C(c1ccnc2ccccc12)N1CCC(n2c(=O)[nH]c3ccccc32)CC1 (configuration not stated),inactive: 0.319%
12,CCC(c1nnnn1C(C)(C)C)N1CCC(n2c(=O)[nH]c3ccccc32)CC1 (configuration not stated),inactive: 0.993%
13,O=C(NCC1(N2CCOCC2)CCCCC1)c1cc(F)c(F)cc1Cl,inactive: -1.5%
14,COc1cc(OC)c(C(=O)NCC2(N(C)C)CCCCC2)cc1OC,inactive: -4.02%
15,CN(C)c1cccc(C(=O)NCC2(N3CCCCC3)CCCCC2)c1,inactive: -0.0272%
16,O=[N+]([O-])c1cc([N+](=O)[O-])c(OC2CCCCC2O)c([N+](=O)[O-])c1 (configuration not stated),inactive: 7.83%
17,COc1ccc(CN(CCCl)CCCl)cc1Cl,inactive: 2.28%
18,CCCCn1nnnc1C(c1ccccc1OC(F)(F)F)N1CCC(n2c(=O)[nH]c3ccccc32)CC1 (configuration not stated),inactive: 11.5%
19,CC(C)c1ccc(NC2CCN(C(=O)OC(C)(C)C)CC2)cc1,inactive: 5%
20,CCCOc1ccc(C(=O)NCC2(N(C)C)CCCCC2)cc1OC,inactive: -0.129%
21,O=C(NCC1(N2CCOCC2)CCCCC1)c1ccccc1Br,inactive: 4.68%
22,Cc1ccc(C(=O)NCC2(N(C)C)CCCCC2)o1,inactive: -1.77%
23,COc1ccc(C(c2nnnn2C2CCCC2)N2CCC(n3c(=O)[nH]c4ccccc43)CC2)cc1 (configuration not stated),inactive: 5.32%

row,Compound,growth rescue (activation)
1,O=[N+]([O-])c1cc([N+](=O)[O-])c(Nc2ccc(Cl)cc2)c([N+](=O)[O-])c1,inactive: -36.7%
2,O=C(NCC1(N2CCCCC2)CCCCC1)c1cncc(Br)c1,inactive: -3.76%
3,COc1ccc2c(c1O)-c1c(O)c(OC)cc3c1[C@H](C2)[N+](C)(C)CC3.O=[N+]([O-])c1cc([N+](=O)[O-])c([O-])c([N+](=O)[O-])c1[O-],inactive: -2.26%
4,CN1CCC(Nc2cccc(F)c2)CC1,inactive: 2.52%
5,O=C(OC1CN2CCC1CC2)c1ccc([N+](=O)[O-])cc1 (configuration not stated),inactive: 10.5%
6,CCOc1ccc(C(=O)NCC2(N3CCOCC3)CCCCC2)cc1,inactive: 1.37%
7,O=C(NCC1(N2CCCCC2)CCCCC1)c1cccc([N+](=O)[O-])c1,inactive: -5.06%
8,CSc1ccc(C(=O)NCC2(N3CCOCC3)CCCCC2)cc1,inactive: -5.27%
9,N#CC1(Nc2ccccc2)CCN(CCc2ccccc2)CC1,inactive: -7.97%
10,O=c1[nH]c2ccccc2n1C1CCN(C(c2ccccc2OC(F)(F)F)c2nnnn2C2CCCC2)CC1 (configuration not stated),inactive: 16.3%
11,CCN1CCC(Nc2ccc(Cl)cc2)CC1,inactive: 3.05%
12,O=C(NCC1(N2CCCCC2)CCCCC1)c1ccc(OC(F)F)cc1,inactive: 6.33%
13,CCCCn1nnnc1C(c1cccc2ccccc12)N1CCC(n2c(=O)[nH]c3ccccc32)CC1 (configuration not stated),inactive: 1.64%
14,COc1ccc(NC2CCN(C(=O)OC(C)(C)C)CC2)cc1,inactive: 0.0226%
15,CC(C)c1ccc(C(=O)NCC2(N3CCOCC3)CCCCC2)cc1,inactive: -11.6%
16,CN1CCN(CCOC(=O)C(O)(c2ccccc2)c2ccccc2)CC1,inactive: 3.79%
17,O=C(NCC1(N2CCOCC2)CCCCC1)c1cc(=O)[nH]c2ccccc12,inactive: 3.19%
18,COc1cc(C(=O)NCC2(N3CCCCC3)CCCCC2)ccc1OC(F)F,inactive: -0.351%
19,O=C(NCC1(N2CCCCC2)CCCCC1)c1cccc(C(F)(F)F)c1,inactive: -8.54%
20,O=[N+]([O-])c1cc([N+](=O)[O-])c(NCC2CCS(=O)(=O)C2)c([N+](=O)[O-])c1 (configuration not stated),inactive: 1.67%
21,CCOC(=O)N1CCC(Nc2ccc(F)cc2)CC1,inactive: -3.67%
22,COc1ccc(NC2CCN(CCc3ccccc3)CC2)c(OC)c1,inactive: 2.87%
23,O=C(NCC1(N2CCCCC2)CCCCC1)c1ccc(F)cc1,inactive: 23.9%
